In patent US20250122202A1, “EGFR INHIBITOR, PREPARATION METHOD THEREFOR AND USE THEREOF” (SHANDONG NEW TIME PHARMACEUTICAL CO., LTD., priority 2021, published 2025):

Assays:
[1] = tested on: A549 EGFR-WT; test: Cell proliferation inhibition experiment (CCK-8), A549; details: read-out: cell proliferation inhibition IC50 (μM) A549, 72 h, Table 5 numeric
[2] = tested on: KC-0122:BaF3 EGFR-L858R/T790M/C797S; test: Cell proliferation inhibition experiment (CCK-8), KC-0122; details: read-out: cell proliferation inhibition IC50 (μM) KC-0122, 72 h, Table 5 numeric
[3] = tested on: KC-0116:BaF3 EGFR-Del19/T790M/C797S; test: Cell proliferation inhibition experiment (CCK-8), KC-0116; details: read-out: cell proliferation inhibition IC50 (μM) KC-0116, 72 h, Table 5 numeric

(R)-2-(4-(4-methyl-1-piperazin)-1-phenylamino)-4-(1-cyclopropylsulfonyl-3-piperidinamino)-5-(2-methylpropanoyl)-7H-pyrrolo[2,3-d]pyrimidine
IC50 [1]: 7 µM
IC50 [2]: 0.36 µM
IC50 [3]: 0.65 µM
